Molecular target: rBIIa/beta 1 sodium channels expressed in Xenopus oocytes (Rattus norvegicus, UniProt P04775)
Assay: Electrophysiological assay, two-electrode voltage clamp in oocytes, inactivated-state protocol
Assay type: cell-based
Details: read-out: Ki (oocyte), apparent inhibition constant from single point inhibition data, rat brain type IIa/beta 1 Na+ channels in Xenopus oocytes

Sequences of proteins named here, by UniProt entry; tags and fusion partners are left off. Residues count along the entry.
UniProt P04775, whole entry: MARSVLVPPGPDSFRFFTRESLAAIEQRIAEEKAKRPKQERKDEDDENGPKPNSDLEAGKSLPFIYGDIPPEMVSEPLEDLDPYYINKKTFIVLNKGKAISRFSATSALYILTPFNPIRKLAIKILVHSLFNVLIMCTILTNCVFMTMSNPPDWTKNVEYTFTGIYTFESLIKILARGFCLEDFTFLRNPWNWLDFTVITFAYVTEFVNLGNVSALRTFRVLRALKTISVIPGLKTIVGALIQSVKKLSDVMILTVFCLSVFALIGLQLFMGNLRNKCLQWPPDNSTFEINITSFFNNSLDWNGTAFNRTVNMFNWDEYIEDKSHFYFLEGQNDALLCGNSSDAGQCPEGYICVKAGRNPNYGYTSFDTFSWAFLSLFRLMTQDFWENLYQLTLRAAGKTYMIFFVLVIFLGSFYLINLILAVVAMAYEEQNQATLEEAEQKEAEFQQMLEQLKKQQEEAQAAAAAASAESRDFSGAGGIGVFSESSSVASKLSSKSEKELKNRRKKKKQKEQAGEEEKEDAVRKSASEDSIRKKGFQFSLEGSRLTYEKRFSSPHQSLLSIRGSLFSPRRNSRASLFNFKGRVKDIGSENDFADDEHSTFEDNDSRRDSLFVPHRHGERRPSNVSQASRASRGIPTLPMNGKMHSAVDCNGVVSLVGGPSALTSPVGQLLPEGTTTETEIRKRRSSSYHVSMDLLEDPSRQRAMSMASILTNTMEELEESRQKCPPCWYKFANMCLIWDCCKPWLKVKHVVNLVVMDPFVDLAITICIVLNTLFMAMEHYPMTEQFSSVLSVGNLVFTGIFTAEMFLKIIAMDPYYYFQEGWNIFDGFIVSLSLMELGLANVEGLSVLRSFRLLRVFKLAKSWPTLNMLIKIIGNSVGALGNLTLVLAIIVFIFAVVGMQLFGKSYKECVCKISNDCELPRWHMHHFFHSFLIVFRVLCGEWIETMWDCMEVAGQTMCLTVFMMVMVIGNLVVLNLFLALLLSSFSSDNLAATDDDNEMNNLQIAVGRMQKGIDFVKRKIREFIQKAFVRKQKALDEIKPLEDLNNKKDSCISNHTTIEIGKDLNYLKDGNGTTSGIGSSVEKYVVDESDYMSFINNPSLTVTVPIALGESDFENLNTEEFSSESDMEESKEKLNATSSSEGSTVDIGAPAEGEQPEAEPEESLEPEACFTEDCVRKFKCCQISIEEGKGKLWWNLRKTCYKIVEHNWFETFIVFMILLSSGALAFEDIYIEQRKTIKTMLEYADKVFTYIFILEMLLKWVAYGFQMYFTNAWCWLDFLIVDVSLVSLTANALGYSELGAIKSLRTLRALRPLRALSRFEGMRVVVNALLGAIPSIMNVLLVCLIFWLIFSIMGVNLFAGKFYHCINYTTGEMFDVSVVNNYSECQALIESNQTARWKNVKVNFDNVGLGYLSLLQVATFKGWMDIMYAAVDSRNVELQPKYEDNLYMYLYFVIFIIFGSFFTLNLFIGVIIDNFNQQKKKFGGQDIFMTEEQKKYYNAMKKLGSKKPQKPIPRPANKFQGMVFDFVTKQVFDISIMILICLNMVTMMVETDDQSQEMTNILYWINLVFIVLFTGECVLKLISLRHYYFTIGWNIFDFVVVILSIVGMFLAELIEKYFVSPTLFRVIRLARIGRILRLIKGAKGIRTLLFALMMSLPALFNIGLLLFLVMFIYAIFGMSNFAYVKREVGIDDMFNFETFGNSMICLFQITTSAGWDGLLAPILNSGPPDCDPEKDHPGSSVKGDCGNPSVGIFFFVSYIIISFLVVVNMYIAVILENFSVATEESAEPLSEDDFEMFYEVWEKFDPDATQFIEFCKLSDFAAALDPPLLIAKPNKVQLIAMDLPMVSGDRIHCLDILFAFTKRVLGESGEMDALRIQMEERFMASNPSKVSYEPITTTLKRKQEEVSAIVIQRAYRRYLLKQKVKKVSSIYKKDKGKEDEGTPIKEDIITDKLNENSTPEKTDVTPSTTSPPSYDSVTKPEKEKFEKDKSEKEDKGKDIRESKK
UniProt Q00954, 19-218 partner limits assumed: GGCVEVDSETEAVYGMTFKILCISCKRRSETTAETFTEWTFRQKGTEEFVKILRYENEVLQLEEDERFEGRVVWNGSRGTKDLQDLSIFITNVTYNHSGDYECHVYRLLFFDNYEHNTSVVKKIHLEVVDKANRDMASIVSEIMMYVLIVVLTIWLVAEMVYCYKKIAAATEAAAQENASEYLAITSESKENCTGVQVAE

CCC1SCC(=O)N1CCN1CCCCC1 (stereo not shown)
Ki: 27.3 µM

From patent US7169782B2, “Aryl substituted thiazolidinones and the use thereof” (Euro-Celtique S.A., priority 2001, dated 2007)
